Where a chain is given by its changes, count along the chain named. Values belong to the binder of their own block, whether it stands above or below them.
Columns and labels:
[1] = target: T1, human von Willebrand Factor (vWF) (human, UniProt P04275 764-2813); assay: SPR (BIACORE) on vWF
T1 construct: Multimeric plasma protein; The species of the vWF on the BIACORE chip and ELISA plates is not restated there; also called vWF (Red Cross); human vWF

[2] = target: T1, human von Willebrand Factor (vWF); assay: SPR (BIACORE) on immobilised vWF, range of nanobody concentrations; KD via steady state affinity
[3] = target: T1, human von Willebrand Factor (vWF); assay: SPR (BIACORE) on vWF; remark: listed apart in the source
[4] = target: T1, human von Willebrand Factor (vWF); assay: SPR (BIACORE) on vWF; remark: listed apart in the source

B1: 12A2 (VHH)
VHH: QVKLEESGGGLVQAGGALRLSCAASGRTFSYNPMGWFRQAPGKERDLVAAISRTGGSTYYPDSVEGRFTISRDNAKRMVYLQMNNLKPEDTAVYYCAAAGVRAEDGRVRTLPSEYTFWGQGTQVTVSS
notes: 12B6 homologue, monovalent Nanobody
Kd [1]: 3.1 nM | Kd [2]: 4.4 nM

B2: 12B6 (VHH)
VHH: B1 VHH with K3Q, E5V, L47V, P61A, D62R, N85A, T116N
notes: Monovalent llama Nanobody; TALON-purified and detected with anti-myc, so tagged (myc/His)
Kd [3]: 4.4 nM | Kd [2]: 4.5 nM

B3: 12A2H13 (VHH)
VHH: EVQLVESGGGLVQPGGSLRLSCAASGFTFSYNPMGWFRQAPGKGRELVAAISRTGGSTYYPDSVEGRFTISRDNAKNSVYLQMNSLRAEDTAVYYCAAAGVRAEDGRVRTLPSEYTFWGQGTLVTVSS
notes: Humanised 12A2, monovalent
Kd [1]: 38.8 nM

B6: 12A2H3 (VHH)
VHH: B3 VHH with F27R, S78M, L123Q
notes: Humanised 12A2, monovalent
Kd [1]: 14.6 nM

B8: 12A2H11 (VHH)
VHH: B3 VHH with N77R, S78M, L123Q
notes: Humanised 12A2, monovalent
Kd [1]: 10.6 nM

B10: 12A5H1 (VHH)
VHH: EVQLVESGGGLVQPGGSLRLSCAASGRIFSIGAMGMYRQAPGKGRELVATITSGGSTNYADPVKGRFTISRDGPKNTVYLQMNSLRAEDTAVYYCYANLKQGSYGYRFNDYWGQGTQVTVSS
notes: Humanised 12A5, monovalent; TALON-purified, so His-tagged
Kd [4]: 1.8 nM

B11: 12A5H2 (VHH)
VHH: B10 VHH with P74A
notes: as for B10
Kd [4]: 12.8 nM

Next, values leading:

Kd [3]: 4.4 nM
B4: 12B6H1 (VHH)
VHH: B3 VHH with F27R, E46D, L47V, P61A, D62R, N77R, S78M, T116N, L123Q
notes: Humanised 12B6, monovalent

Kd [3]: 3.5 nM
B5: 12B6H2 (VHH)
VHH: B3 VHH with F27R, L47V, P61A, D62R, N77R, S78M, T116N, L123Q
notes: Humanised 12B6, monovalent

Kd [3]: 9 nM
B7: 12B6H3 (VHH)
VHH: B3 VHH with F27R, E46D, L47V, P61A, D62R, S78M, T116N, L123Q
notes: Humanised 12B6, monovalent

Kd [3]: 7.3 nM
B9: 12B6H4 (VHH)
VHH: B3 VHH with F27R, E46D, L47V, P61A, D62R, N77R, T116N, L123Q
notes: Humanised 12B6, monovalent

From patent US20130136736A1 (Ablynx, published 2013)
